This passage reports IC50 and selectivity ratio results from ChEMBL document CHEMBL1155951, “Design, synthesis, and biological activities of conformationally restricted analogs of primaquine with a 1,10-phenanthroline framework” (Bioorg Med Chem Lett, 2008).

Data set [1] relates to Plasmodium falciparum. The experiment in a line: Antiplasmodial activity against chloroquine-resistant Plasmodium falciparum W2 after 48 hrs by [3H]hypoxanthine uptake. It counts as functional, organism-based.
Data set [2] concerns Plasmodium falciparum. Briefly: Antiplasmodial activity against chloroquine-resistant Plasmodium falciparum FcB1 after 48 hrs by [3H]hypoxanthine uptake. It counts as functional, organism-based. Particulars: FcB1/Columbia.
Data set [3] relates to Plasmodium falciparum. Briefly: Antiplasmodial activity against chloroquine-resistant Plasmodium falciparum W2 gametocytes after 48 hrs by microscopy. Particulars: W2, 48 h. It counts as functional, organism-based.
Data set [4] can be described thus: Selectivity index, ratio of IC50 for african green monkey (Cercopithecus aethiops) Vero cells to IC50 for chloroquine-resistant Plasmodium falciparum FcB1. Particulars: read-out: Ratio IC50. The class given is toxicity, cell-based.
For data set [5], the system named is Plasmodium falciparum. Briefly: Antiplasmodial activity against chloroquine-resistant Plasmodium falciparum FcM29 after 48 hrs by [3H]hypoxanthine uptake. It counts as functional, organism-based.
Data set [6] in a line: Selectivity index, ratio of IC50 for african green monkey (Cercopithecus aethiops) Vero cells to IC50 for chloroquine-resistant Plasmodium falciparum W2. The class given is toxicity, cell-based. Particulars: read-out: Ratio IC50.
Data set [7] in a line: Selectivity index, ratio of IC50 for african green monkey (Cercopithecus aethiops) Vero cells to IC50 for chloroquine-resistant Plasmodium falciparum FcM29. The class given is toxicity, cell-based. The note with it: read-out: Ratio IC50.
Data set [8] concerns Plasmodium falciparum. Briefly: Antiplasmodial activity against chloroquine-sensitive Plasmodium falciparum F32 after 48 hrs by [3H]hypoxanthine uptake. The class given is functional, organism-based.
Data set [9] can be described thus: Selectivity index, ratio of IC50 for african green monkey (Cercopithecus aethiops) Vero cells to IC50 for chloroquine-sensitive Plasmodium falciparum F32. The class given is toxicity, cell-based. The note with it: read-out: Ratio IC50.

Each structure is given as a SMILES string.

What is called IC50 is the point on the concentration scale where inhibition reaches its midpoint.

Take `COc1cc(NC(C)CCCN)c2ncccc2c1` (centres undefined) [PRIMAQUINE]: the IC50 in the data set with Plasmodium falciparum [1] is 7.7 µM; with Plasmodium falciparum [2], 6.87 µM; with Plasmodium falciparum [3] it was 9.65 µM; in the data set on Plasmodium falciparum [5], 7.25 µM; with Plasmodium falciparum [8], 6.83 µM. Further, the selectivity ratio turned out to be 49 in data set [4], 44 in data set [6], 47 in data set [7] and 49 in data set [9].
